Experiment: Perchloroethylene oxidation with dual use system and peracetic acid
Details: Table 2 Entry 6 and Table 3 Entry 3 with peracetic acid

ClC(Cl)=C(Cl)Cl
oxidized (after 30 minutes): 99.861%
oxidized (after 1.5 hours): 99.898%

Source: patent publication US8115046B2, “Micro encapsulation composition for hydrocarbons and detoxification of highly hazardous chemicals and substances” (dated 2012)
